Measurements taken from PubChem BioAssay (NCI).
Several values for one entry are separate records, joined by “and”; a condition that tells them apart may be missing. Identical values can stand only once. Only a part is listed here, and it is no random draw.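 Single-concentration screen, 48 h exposure, 96-well plates. Endpoint: percent growth. Below 10 = active.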 Activity calls are given as the source filed them.

Assays:
Assay in all cases: NCI-60 one-dose screen, 48 h (100 = growth as untreated, 0 = no growth, -100 = all killed)
Settings in all cases: 10 µM
SK-MEL-2 melanoma = tested on: SK-MEL-2 melanoma
EKVX NSCLC = tested on: EKVX NSCLC
SN12C renal = tested on: SN12C renal
UO-31 renal = tested on: UO-31 renal
TK-10 renal = tested on: TK-10 renal
ACHN renal = tested on: ACHN renal
CAKI-1 renal = tested on: CAKI-1 renal
A498 renal = tested on: A498 renal
HL-60(TB) leukemia = tested on: HL-60(TB) leukemia
CCRF-CEM leukemia = tested on: CCRF-CEM leukemia
MOLT-4 leukemia = tested on: MOLT-4 leukemia
SR leukemia = tested on: SR leukemia
RPMI-8226 leukemia = tested on: RPMI-8226 leukemia
OVCAR-8 ovarian = tested on: OVCAR-8 ovarian
OVCAR-5 ovarian = tested on: OVCAR-5 ovarian
OVCAR-4 ovarian = tested on: OVCAR-4 ovarian
SK-OV-3 ovarian = tested on: SK-OV-3 ovarian
OVCAR-3 ovarian = tested on: OVCAR-3 ovarian
HS 578T breast = tested on: HS 578T breast
IGROV1 ovarian = tested on: IGROV1 ovarian

Measured: growth

NC(Cc1ccccc1N(CCCl)CCCl)C(=O)O (centres undefined)
inactive: SK-MEL-2 melanoma 76.4% | EKVX NSCLC 89.9% | SN12C renal 69.2% | UO-31 renal 88.9% | TK-10 renal 99.2% | ACHN renal 57.2% | CAKI-1 renal 24.7% | A498 renal 77.1% | HL-60(TB) leukemia 12.2% | CCRF-CEM leukemia 10.7% | MOLT-4 leukemia 41.1% | RPMI-8226 leukemia 63.6% | OVCAR-8 ovarian 84.2% | OVCAR-5 ovarian 105% | OVCAR-4 ovarian 96.3% | SK-OV-3 ovarian 76.5% | OVCAR-3 ovarian 103% | HS 578T breast 105%
active: SR leukemia 0.5%

BrCCN(CCBr)c1ccc2c(c1)Cc1ccccc1-2
active: CAKI-1 renal -2.92% | HL-60(TB) leukemia 8.5% | MOLT-4 leukemia 8.3% | SR leukemia -8.12%
inactive: SK-MEL-2 melanoma 46.9% | EKVX NSCLC 63% | SN12C renal 36.3% | UO-31 renal 25.7% | TK-10 renal 70.2% | ACHN renal 11% | A498 renal 17.5% | CCRF-CEM leukemia 19.7% | RPMI-8226 leukemia 24% | OVCAR-8 ovarian 31.1% | OVCAR-5 ovarian 76.2% | OVCAR-4 ovarian 59.9% | SK-OV-3 ovarian 44.2% | IGROV1 ovarian 41.1% | OVCAR-3 ovarian 35.1% | HS 578T breast 91.6%

Cc1ccccc1CN(CCCl)CCCl
inactive: SK-MEL-2 melanoma 106% | EKVX NSCLC 103% | SN12C renal 103% | UO-31 renal 85.5% | TK-10 renal 110% | ACHN renal 98.3% | CCRF-CEM leukemia 94.7% | RPMI-8226 leukemia 100% | OVCAR-8 ovarian 93.9% | OVCAR-5 ovarian 105% | OVCAR-4 ovarian 98.6% | SK-OV-3 ovarian 97.7% | IGROV1 ovarian 79.7% | OVCAR-3 ovarian 94.1%

O=C1C(=O)N(CN(CCCl)CCCl)c2ccccc21
inactive: SK-MEL-2 melanoma 123% | SN12C renal 95.9% | UO-31 renal 78.1% | TK-10 renal 116% | ACHN renal 92.3% | CAKI-1 renal 94.3% | A498 renal 103% | HL-60(TB) leukemia 97.9% | MOLT-4 leukemia 96.3% | SR leukemia 87.4% | RPMI-8226 leukemia 98.2% | OVCAR-8 ovarian 98.7% | OVCAR-5 ovarian 108% | OVCAR-4 ovarian 106% | SK-OV-3 ovarian 98.8% | IGROV1 ovarian 99.4% | OVCAR-3 ovarian 105%

O=CC(O)C(O)C(O)C(O)CN(CCCl)CCCl (centres undefined)
inactive: SN12C renal 97.5% | UO-31 renal 84.2% | TK-10 renal 104% | ACHN renal 94.5% | CAKI-1 renal 95% | A498 renal 92.4% | HL-60(TB) leukemia 111% | CCRF-CEM leukemia 92.1% | MOLT-4 leukemia 85.4% | SR leukemia 100% | RPMI-8226 leukemia 99.9% | OVCAR-8 ovarian 101% | OVCAR-5 ovarian 97.1% | OVCAR-4 ovarian 96.5% | SK-OV-3 ovarian 100% | IGROV1 ovarian 101% | OVCAR-3 ovarian 102% | HS 578T breast 106%

CCNC(=O)Cc1ccc(N(CCCl)CCCl)cc1
active: CAKI-1 renal 4.06%
inactive: SK-MEL-2 melanoma 122% | SN12C renal 53% | UO-31 renal 68.8% | TK-10 renal 105% | ACHN renal 29.6% | A498 renal 112% | HL-60(TB) leukemia 30.7% | CCRF-CEM leukemia 35.5% | MOLT-4 leukemia 47.2% | SR leukemia 19.5% | RPMI-8226 leukemia 86.2% | OVCAR-8 ovarian 82% | OVCAR-5 ovarian 103% | OVCAR-4 ovarian 98.3% | SK-OV-3 ovarian 97.4% | IGROV1 ovarian 67.8% | OVCAR-3 ovarian 103%

CC(C)(C)C(=O)CBr
inactive: SN12C renal 107% | UO-31 renal 87.8% | TK-10 renal 98.5% | ACHN renal 104% | CAKI-1 renal 99.9% | A498 renal 106% | HL-60(TB) leukemia 96.7% | MOLT-4 leukemia 97.6% | SR leukemia 102% | RPMI-8226 leukemia 102% | OVCAR-8 ovarian 104% | OVCAR-5 ovarian 107% | OVCAR-4 ovarian 107% | SK-OV-3 ovarian 114% | IGROV1 ovarian 108% | OVCAR-3 ovarian 101% | HS 578T breast 103%

CCCCOc1ccc(N(CCCl)CCCl)cc1
inactive: SK-MEL-2 melanoma 89.8% | EKVX NSCLC 109% | SN12C renal 104% | UO-31 renal 91% | TK-10 renal 96.4% | ACHN renal 114% | HL-60(TB) leukemia 99.8% | CCRF-CEM leukemia 98% | MOLT-4 leukemia 103% | SR leukemia 84.7% | RPMI-8226 leukemia 97% | OVCAR-8 ovarian 102% | OVCAR-5 ovarian 110% | OVCAR-4 ovarian 111% | SK-OV-3 ovarian 109% | IGROV1 ovarian 102% | OVCAR-3 ovarian 99.3% | HS 578T breast 111%

CCOC(=O)N1CCC(=O)CC1
inactive: SK-MEL-2 melanoma 96.8% | SN12C renal 96.4% | UO-31 renal 87.3% | TK-10 renal 105% | ACHN renal 101% | CAKI-1 renal 98.6% | A498 renal 95.4% | HL-60(TB) leukemia 98.8% | CCRF-CEM leukemia 97.4% | MOLT-4 leukemia 102% | SR leukemia 96.5% | RPMI-8226 leukemia 103% | OVCAR-8 ovarian 95.9% | OVCAR-5 ovarian 99.8% | OVCAR-4 ovarian 95.4% | SK-OV-3 ovarian 94.6% | IGROV1 ovarian 98.9% | OVCAR-3 ovarian 106% | HS 578T breast 95.9%

COc1cc(CN(CCCl)CCCl)cc(OC)c1
inactive: SK-MEL-2 melanoma 90.5% | SN12C renal 100% | UO-31 renal 89.6% | TK-10 renal 127% | ACHN renal 93.3% | CAKI-1 renal 90.1% | A498 renal 100% | HL-60(TB) leukemia 72.1% | MOLT-4 leukemia 78.6% | SR leukemia 84.5% | RPMI-8226 leukemia 97.2% | OVCAR-8 ovarian 97% | OVCAR-5 ovarian 103% | OVCAR-4 ovarian 109% | SK-OV-3 ovarian 103% | IGROV1 ovarian 90.4% | OVCAR-3 ovarian 105%

N#CC(C#N)=Cc1ccc2c(c1)OCO2
inactive: SK-MEL-2 melanoma 112% and 102% | SN12C renal 104% and 97.1% | UO-31 renal 89.5% and 97.8% | TK-10 renal 108% | ACHN renal 97% and 103% | CAKI-1 renal 96.8% and 91.6% | A498 renal 95.5% and 86.6% | HL-60(TB) leukemia 115% and 109% | CCRF-CEM leukemia 89.5% | MOLT-4 leukemia 97.3% and 97.2% | SR leukemia 89.3% and 90% | RPMI-8226 leukemia 101% and 121% | OVCAR-8 ovarian 97.7% and 100% | OVCAR-5 ovarian 99.7% and 100% | OVCAR-4 ovarian 107% and 100% | SK-OV-3 ovarian 105% and 94.1% | IGROV1 ovarian 96.6% and 110% | OVCAR-3 ovarian 111% and 108% | HS 578T breast 104% and 98.7%

Fc1ccc(CCN(CCCl)CCCl)cc1
inactive: SK-MEL-2 melanoma 113% | SN12C renal 100% | UO-31 renal 94.7% | TK-10 renal 119% | ACHN renal 100% | CAKI-1 renal 89% | A498 renal 99.9% | HL-60(TB) leukemia 105% | MOLT-4 leukemia 95.1% | SR leukemia 96.6% | RPMI-8226 leukemia 104% | OVCAR-8 ovarian 103% | OVCAR-5 ovarian 99.4% | OVCAR-4 ovarian 112% | SK-OV-3 ovarian 107% | IGROV1 ovarian 94.6% | OVCAR-3 ovarian 117%

O=Cc1ccc(N(CCCl)CCCl)cc1Cl
inactive: SK-MEL-2 melanoma 81.2% | SN12C renal 79.7% | UO-31 renal 75.8% | ACHN renal 95.6% | CAKI-1 renal 34.7% | HL-60(TB) leukemia 68.6% | MOLT-4 leukemia 71.2% | SR leukemia 67.5% | RPMI-8226 leukemia 39.7% | OVCAR-8 ovarian 86.1% | OVCAR-4 ovarian 18.9% | SK-OV-3 ovarian 64.9% | IGROV1 ovarian 12.2% | OVCAR-3 ovarian 26.9%
active: TK-10 renal -42.9% | A498 renal -89.1% | OVCAR-5 ovarian -7.77%

CCC(C)(C)c1ccc(O)c(CN(CCCl)CCCl)c1
inactive: SK-MEL-2 melanoma 110% | SN12C renal 102% | UO-31 renal 90.3% | TK-10 renal 99.2% | ACHN renal 99.2% | CAKI-1 renal 97.2% | A498 renal 90.6% | HL-60(TB) leukemia 99.1% | CCRF-CEM leukemia 101% | MOLT-4 leukemia 92.2% | SR leukemia 92.4% | RPMI-8226 leukemia 107% | OVCAR-8 ovarian 104% | OVCAR-5 ovarian 103% | OVCAR-4 ovarian 99.7% | SK-OV-3 ovarian 96.2% | IGROV1 ovarian 104% | OVCAR-3 ovarian 103% | HS 578T breast 112%

CCOC(=O)c1ccc(N(CCCl)CCCl)cc1
inactive: SK-MEL-2 melanoma 104% | SN12C renal 103% | UO-31 renal 86% | TK-10 renal 111% | ACHN renal 105% | CAKI-1 renal 95.4% | A498 renal 90.6% | HL-60(TB) leukemia 84.3% | CCRF-CEM leukemia 96.1% | MOLT-4 leukemia 82.5% | SR leukemia 86.1% | RPMI-8226 leukemia 90.4% | OVCAR-8 ovarian 96.8% | OVCAR-5 ovarian 102% | OVCAR-4 ovarian 93.9% | SK-OV-3 ovarian 107% | IGROV1 ovarian 107% | OVCAR-3 ovarian 118% | HS 578T breast 114%

COc1ccc(C(=O)O)cc1N(CCCl)CCCl
inactive: SK-MEL-2 melanoma 105% | SN12C renal 98.4% | UO-31 renal 80.6% | TK-10 renal 91% | ACHN renal 103% | CAKI-1 renal 76.3% | A498 renal 102% | HL-60(TB) leukemia 87.2% | CCRF-CEM leukemia 73.3% | MOLT-4 leukemia 79.5% | SR leukemia 66.9% | RPMI-8226 leukemia 95.7% | OVCAR-8 ovarian 97.1% | OVCAR-5 ovarian 99% | OVCAR-4 ovarian 109% | SK-OV-3 ovarian 97.7% | IGROV1 ovarian 73.2% | OVCAR-3 ovarian 106% | HS 578T breast 105%

Cc1cccc(C(=O)N(CCCl)CCCl)c1
inactive: SK-MEL-2 melanoma 98.2% | SN12C renal 100% | UO-31 renal 97% | TK-10 renal 118% | ACHN renal 93.4% | CAKI-1 renal 86.2% | A498 renal 112% | HL-60(TB) leukemia 96.7% | MOLT-4 leukemia 101% | SR leukemia 98.2% | RPMI-8226 leukemia 97.8% | OVCAR-8 ovarian 107% | OVCAR-5 ovarian 96.6% | OVCAR-4 ovarian 101% | SK-OV-3 ovarian 114% | IGROV1 ovarian 102% | OVCAR-3 ovarian 102%
